Experimental data as given in patent US7041844B2.

By UniProt entry, the sequences of proteins in these tests, tags left out.
UniProt P15207, whole entry S389L: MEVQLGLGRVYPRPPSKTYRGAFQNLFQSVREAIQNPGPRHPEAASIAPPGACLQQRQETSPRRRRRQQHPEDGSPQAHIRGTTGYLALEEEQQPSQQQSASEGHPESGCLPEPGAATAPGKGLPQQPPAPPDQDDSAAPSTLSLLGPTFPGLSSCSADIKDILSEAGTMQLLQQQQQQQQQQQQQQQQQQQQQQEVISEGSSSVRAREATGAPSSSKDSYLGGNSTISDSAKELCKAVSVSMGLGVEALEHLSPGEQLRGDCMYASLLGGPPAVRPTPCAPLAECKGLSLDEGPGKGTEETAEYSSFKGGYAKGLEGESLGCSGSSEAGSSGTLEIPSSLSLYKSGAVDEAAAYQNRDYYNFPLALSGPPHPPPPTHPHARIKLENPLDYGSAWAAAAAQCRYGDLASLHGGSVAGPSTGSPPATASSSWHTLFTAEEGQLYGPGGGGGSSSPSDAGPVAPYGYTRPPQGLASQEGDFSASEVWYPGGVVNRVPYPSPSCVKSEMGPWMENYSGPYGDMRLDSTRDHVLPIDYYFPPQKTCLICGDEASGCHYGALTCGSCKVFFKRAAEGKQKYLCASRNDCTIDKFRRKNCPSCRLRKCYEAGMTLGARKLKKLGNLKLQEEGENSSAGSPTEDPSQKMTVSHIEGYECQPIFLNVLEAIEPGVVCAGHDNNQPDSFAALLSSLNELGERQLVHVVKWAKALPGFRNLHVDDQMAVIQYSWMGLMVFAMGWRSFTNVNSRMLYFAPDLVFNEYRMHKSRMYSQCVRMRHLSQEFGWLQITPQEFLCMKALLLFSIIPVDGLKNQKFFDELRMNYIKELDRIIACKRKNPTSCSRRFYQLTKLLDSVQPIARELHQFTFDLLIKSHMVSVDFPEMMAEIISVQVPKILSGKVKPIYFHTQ

Columns and labels:
[1] = molecular target: T1, rat ventral prostate AR (Rattus norvegicus, UniProt P15207); assay type: binding
[2] = molecular target: T1, rat ventral prostate AR; test: AR exchange assay (irreversible binding, exchangeable specific 3H-MIB binding)
[3] = 3H-MIB 1 nM, 4° C., 18 hours, Table 3

| Compound | pKi [1, 3] | irreversible binding to the AR (result in words) ([2]; AR exchange assay) | number of exchangeable AR binding sites, % of control incubations with no ligand ([2]; ligand 2 μM, within 0.5 hr, preliminary time-dependent AR inactivation experiment) | exchangeable specific binding of 3H-MIB (% of control) ([2]; ligand 10 μM, pre-incubation at 4° C. for up to 12 hours, exchange with 1 nM 3H-MIB) | pKi [1] |
| --- | --- | --- | --- | --- | --- |
| C[C@](O)(CSc1cccc(NC(=O)CBr)c1)C(=O)Nc1ccc(C#N)c(C(F)(F)F)c1 | 6.60 |  |  |  |  |
| C[C@](O)(CSc1ccc(N=[N+]=[N-])cc1)C(=O)Nc1ccc(C#N)c(C(F)(F)F)c1 | 7.94 |  |  |  |  |
| C[C@](O)(CS(=O)(=O)c1ccc(N=C=S)cc1)C(=O)Nc1ccc(C#N)c(C(F)(F)F)c1 |  | bind the AR irreversibly | 50% | 15 % of control | 7.52 |
| C[C@](O)(CSc1cccc(NC(=O)CCl)c1)C(=O)Nc1ccc(C#N)c(C(F)(F)F)c1 | 5.96 |  |  |  |  |

pKi: −log10 of the molar value. Like-named read-outs stand apart in the source and are kept apart here.
